## Apparent affinities of Ab-14 variants for a coronavirus HR2 peptide

Data: MIT Lincoln Laboratory AlphaSeq set, Li et al. 2023, doi:10.1038/s41467-023-39022-2, as distributed in FLAb.

Target: peptide PDVDLGDISGINAS, taken from heptad repeat 2 (HR2) of SARS-CoV-2 spike.

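Phage display of a naive human antibody library on the peptide gave the parent. These sequences belong to a second round, designed from the earlier measurements on random variants of the parent. Their group label is 14L_GP_HC (GP: Gaussian process model; HC: hill climbing; a sequence that several methods proposed may carry one label only). The assay is AlphaSeq: two haploid yeast populations carry antibody and antigen on their surface. Pairs that bind mate more often; barcode pairs of the diploids are counted by sequencing. Read counts were normalised to the haploid input and turned into Kd by a linear fit to BCL2-family pairs of known affinity, for each replicate. Mating was done six times.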

Parent: Ab-14, a human scFv built as VH, a 15-residue (Gly4Ser)3 linker, VL. Only the CDRs of the light chain vary.
VH: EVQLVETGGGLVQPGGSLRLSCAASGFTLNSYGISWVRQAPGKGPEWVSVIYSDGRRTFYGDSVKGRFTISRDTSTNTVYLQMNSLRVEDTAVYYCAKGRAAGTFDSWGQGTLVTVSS
VL: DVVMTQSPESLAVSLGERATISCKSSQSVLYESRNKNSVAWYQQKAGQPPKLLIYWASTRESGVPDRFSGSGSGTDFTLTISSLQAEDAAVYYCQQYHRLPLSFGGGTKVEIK

Positions count from residue 1 of the parent VL; S25Q puts Q in place of S. Affinities are written as log10 Kd with Kd in nM; a lower number is a better binder. Where no diploid with the target was found in that replicate, the entry reads "ND": below detection, most likely a poor binder, though not proof of it. In the paper, a design with two or fewer of six values counts as a poor binder. As a blank, each scFv also met three strains without target: over all light chain designs, 4% of these pairings were detected, typically at 2.64 and seldom below 1.59. Also given: how often the same scFv was detected with the empty control strains, with their mean in brackets. The parent sequence was in this pool as ten entries: three were never detected, three once, and four in most replicates, with averages from 0.34 to 2.37. The range of this assay differs from that of the first round, and the authors advise against merging the two.

| changes | replicates, log10 nM | control signals |
|---|---|---|
| S25Q+W56D+S103Q | 0.13 / 0.12 / 0.56 / 0.40 / 0.77 / 0.50 | 0 of 18 |
| K24F+S26L+Y31L+K36F+W56H+S62D | 1.96 / 1.46 / 2.67 / 1.12 / 1.59 / 2.08 | 0 of 18 |
| K24H+S25F+Q27P+W56N | -0.23 / -0.04 / -0.27 / -0.47 / -0.06 / -0.29 | 1 of 18 (2.83) |
| S25V+S26R+V29T+W56D+R99M | -0.06 / -0.12 / -0.35 / -0.24 / -0.31 / -0.11 | 2 of 18 (2.60) |
| Q27E+R34H+W56E+E61M | 1.14 / 1.40 / 1.22 / 1.93 / 1.21 / 1.48 | 0 of 18 |
| S25F+V29E+N35T+W56N+R99Q | 0.34 / 0.18 / 0.08 / 0.15 / 0.13 / 0.23 | 1 of 18 (4.90) |
| S25C+S26Q+S38N+W56H+S62D | 0.13 / -0.02 / -0.03 / -0.30 / 0.22 / 0.18 | 1 of 18 (3.63) |
| Q27I+V29Y+K36C+W56E | 0.40 / 0.78 / 0.78 / 1.24 / 0.83 / 0.81 | 2 of 18 (2.88) |
| K24H+Q27P+S33D+K36G+W56N | 3.23 / 1.36 / 0.57 / 0.24 / 0.61 / 0.56 | 0 of 18 |
| S25F+V29Q+S33W+W56D | 0.72 / 0.57 / 0.57 / 0.33 / 0.57 / 0.46 | 2 of 18 (3.34) |
| Q27I+V29Y+L30A+W56D | 0.11 / 0.10 / 0.02 / -0.16 / -0.04 / 0.16 | 1 of 18 (2.95) |
| S25L+S26D+Q27D+Y31Q+W56D | -0.05 / -0.38 / -0.42 / -0.48 / -0.54 / -0.43 | 1 of 18 (5.32) |
| K24D+S25L+V29W+W56G | -0.21 / -0.37 / -0.53 / -0.58 / -0.60 / -0.32 | 1 of 18 (2.59) |
| K24H+Q27P+L30W+Y31I+W56N | 0.46 / 0.38 / 0.42 / 0.12 / 0.18 / 0.58 | 2 of 18 (3.38) |
| S25V+N35T+W56N+Y97E | 4.06 / 2.84 / 1.82 / 2.48 / 1.13 / 3.28 | 1 of 18 (2.59) |
| Q27F+L30D+Y31F+W56D | 0.23 / -0.06 / -0.15 / -0.26 / -0.07 / 0.03 | 0 of 18 |
| S25H+S26E+S28G+V29D+W56G+T59V | -0.05 / -0.06 / -0.26 / -0.32 / -0.51 / -0.19 | 0 of 18 |
| S25L+S26R+V29T+W56K+E61L | 1.43 / 1.56 / 1.40 / 1.29 / 1.27 / 1.32 | 3 of 18 (2.25) |
| S25F+L30C+N35T+W56N | -0.16 / -0.53 / -0.28 / -0.61 / -0.40 / -0.25 | 3 of 18 (3.44) |
| S25F+S28K+L30N+S33T+N35T+W56N | 1.13 / 1.16 / 1.26 / 1.64 / 1.94 / 1.11 | 0 of 18 |
| S25Q+Y31G+K36C+W56D+H98V | 0.77 / 0.32 / 0.24 / 0.58 / 0.79 / 0.44 | 0 of 18 |
| R34F+W56N+E61M | 1.18 / 0.65 / 0.87 / 0.70 / 0.71 / 1.21 | 1 of 18 (1.45) |
| V29F+N35W+W56A+T59Q | 1.01 / 1.46 / 1.02 / 1.17 / 0.89 / 1.18 | 2 of 18 (3.83) |
| K24G+S25L+W56D | 0.13 / 0.31 / 0.09 / 0.30 / 0.44 / 0.35 | 1 of 18 (2.03) |
| S25F+S28W+N35T+W56N+A57G | -0.09 / -0.17 / -0.32 / -0.30 / -0.37 / -0.06 | 0 of 18 |
| S25L+S26R+S28G+E32Q+W56G | 0.20 / -0.09 / -0.21 / -0.23 / 0.09 / 0.14 | 0 of 18 |
| V29S+R34G+W56H | -0.11 / 0.17 / 0.10 / -0.64 / -0.56 / -0.23 | 0 of 18 |
| Y31G+R34G+W56H+S62D | 0.86 / 0.54 / 0.67 / 0.82 / 0.51 / 0.61 | 1 of 18 (2.23) |
| S25F+N35T+W56N+S58V+S62A | 0.17 / -0.02 / -0.24 / -0.08 / -0.25 / 0.08 | 1 of 18 (3.09) |
| S25L+S26D+S28G+V29D+W56G | 0.20 / 0.28 / 0.10 / 0.13 / 0.23 / 0.36 | 0 of 18 |
| S25I+V29F+K36V+W56G | -0.03 / -0.21 / -0.38 / -0.11 / -0.09 / 0.05 | 0 of 18 |
| K24H+Q27P+V29D+S38N+W56N | 0.49 / 0.00 / -0.06 / 0.11 / -0.05 / 0.10 | 0 of 18 |
| S26L+V29G+W56H+S62Q | ND / 1.83 / 0.63 / 0.32 / 0.16 / 1.49 | 1 of 18 (1.63) |
| Q27M+V29Y+Y31G+W56E | 0.11 / 0.07 / 0.07 / -0.06 / 0.07 / 0.13 | 0 of 18 |
| S25Y+S26Y+Q27P+V29Y+W56Q+R99V | 0.76 / 0.55 / 0.71 / 1.18 / 0.96 / 1.23 | 1 of 18 (0.95) |
| S26D+V29W+W56H+S62Q | 0.41 / 0.03 / 0.17 / -0.19 / 0.00 / 0.19 | 2 of 18 (2.29) |
| S25L+S26R+S28Q+V29T+S33T+W56S+S62E | 0.57 / 0.34 / 0.01 / 0.13 / 0.09 / 0.46 | 2 of 18 (2.73) |
| S25Q+S28E+Y31M+W56D | 0.12 / 0.07 / -0.09 / 0.00 / 0.01 / 0.26 | 3 of 18 (2.89) |
| S25V+S26D+S28G+V29A+W56G | -0.10 / -0.03 / -0.22 / -0.20 / -0.20 / -0.16 | 1 of 18 (3.42) |
| K24H+Q27P+W56N+S62V+S103Q | -0.59 / -0.51 / 0.03 / -0.58 / -0.53 / -0.30 | 0 of 18 |
| S25H+Y31G+S33Q+W56D+A57I | 0.75 / 0.45 / 0.60 / 0.90 / 0.48 / 0.83 | 1 of 18 (1.27) |
| S25F+Q27W+Y31F+W56D | -0.16 / -0.18 / -0.50 / -0.29 / -0.38 / -0.24 | 1 of 18 (1.82) |
| S25Q+S26Q+S33E+W56D | 0.14 / 0.01 / -0.04 / -0.14 / -0.11 / 0.08 | 0 of 18 |
| Q27F+S28V+V29Y+W56S | 3.11 / 3.20 / 1.80 / 1.88 / 1.21 / 1.56 | 1 of 18 (3.13) |
| S25L+S26Q+S28Q+V29W+W56Q+S62E | 0.39 / 0.56 / 0.26 / 0.09 / 0.27 / 0.45 | 0 of 18 |
| S26L+Q27G+V29Q+L30E+W56H+S62D | 0.07 / 0.08 / 0.15 / -0.40 / -0.06 / -0.06 | 1 of 18 (3.71) |
| Q27I+V29T+Y31E+W56E | 0.15 / 0.28 / 0.32 / 0.55 / 0.26 / 0.31 | 0 of 18 |
| Q27I+V29Y+R34L+N37Y+W56E+T59Q | 1.67 / 1.73 / 0.55 / 1.23 / 1.22 / 0.81 | 0 of 18 |

A selection of 8 entries from above:

| changes | replicates, log10 nM | control signals |
|---|---|---|
| Q27I+V29T+Y31E+W56E | 0.15 / 0.28 / 0.32 / 0.55 / 0.26 / 0.31 | 0 of 18 |
| Q27F+S28V+V29Y+W56S | 3.11 / 3.20 / 1.80 / 1.88 / 1.21 / 1.56 | 1 of 18 (3.13) |
| S25Q+S28E+Y31M+W56D | 0.12 / 0.07 / -0.09 / 0.00 / 0.01 / 0.26 | 3 of 18 (2.89) |
| S25Q+Y31G+K36C+W56D+H98V | 0.77 / 0.32 / 0.24 / 0.58 / 0.79 / 0.44 | 0 of 18 |
| S25C+S26Q+S38N+W56H+S62D | 0.13 / -0.02 / -0.03 / -0.30 / 0.22 / 0.18 | 1 of 18 (3.63) |
| K24H+Q27P+V29D+S38N+W56N | 0.49 / 0.00 / -0.06 / 0.11 / -0.05 / 0.10 | 0 of 18 |
| S25L+S26Q+S28Q+V29W+W56Q+S62E | 0.39 / 0.56 / 0.26 / 0.09 / 0.27 / 0.45 | 0 of 18 |
| S25F+L30C+N35T+W56N | -0.16 / -0.53 / -0.28 / -0.61 / -0.40 / -0.25 | 3 of 18 (3.44) |